Assay results: US7736677B2 (Metaproteomics, LLC, priority 2001, dated 2010)

System: adiponectin
Assay: Adiponectin secretion from TNFα-treated 3T3-L1 adipocytes

COc1ccc2c(c1)c(CC(=O)O)c(C)n2C(=O)c1ccc(Cl)cc1 [Indomethacin, indomethacin]
adiponectin secretion (0.5 ng TNFα/ml): dose-dependant decrease
maximum increase of adiponectin secretion from the TNFα solvent control (10 ng/ml TNFα): 67%
